Test results taken from US8921376B2, “Pyrrolopyridines useful as inhibitors of protein kinase” (Vertex Pharmaceuticals Incorporated, priority 2005, dated 2014).

By UniProt entry, the sequences of proteins in these tests, tags left out.
UniProt P52333, whole entry: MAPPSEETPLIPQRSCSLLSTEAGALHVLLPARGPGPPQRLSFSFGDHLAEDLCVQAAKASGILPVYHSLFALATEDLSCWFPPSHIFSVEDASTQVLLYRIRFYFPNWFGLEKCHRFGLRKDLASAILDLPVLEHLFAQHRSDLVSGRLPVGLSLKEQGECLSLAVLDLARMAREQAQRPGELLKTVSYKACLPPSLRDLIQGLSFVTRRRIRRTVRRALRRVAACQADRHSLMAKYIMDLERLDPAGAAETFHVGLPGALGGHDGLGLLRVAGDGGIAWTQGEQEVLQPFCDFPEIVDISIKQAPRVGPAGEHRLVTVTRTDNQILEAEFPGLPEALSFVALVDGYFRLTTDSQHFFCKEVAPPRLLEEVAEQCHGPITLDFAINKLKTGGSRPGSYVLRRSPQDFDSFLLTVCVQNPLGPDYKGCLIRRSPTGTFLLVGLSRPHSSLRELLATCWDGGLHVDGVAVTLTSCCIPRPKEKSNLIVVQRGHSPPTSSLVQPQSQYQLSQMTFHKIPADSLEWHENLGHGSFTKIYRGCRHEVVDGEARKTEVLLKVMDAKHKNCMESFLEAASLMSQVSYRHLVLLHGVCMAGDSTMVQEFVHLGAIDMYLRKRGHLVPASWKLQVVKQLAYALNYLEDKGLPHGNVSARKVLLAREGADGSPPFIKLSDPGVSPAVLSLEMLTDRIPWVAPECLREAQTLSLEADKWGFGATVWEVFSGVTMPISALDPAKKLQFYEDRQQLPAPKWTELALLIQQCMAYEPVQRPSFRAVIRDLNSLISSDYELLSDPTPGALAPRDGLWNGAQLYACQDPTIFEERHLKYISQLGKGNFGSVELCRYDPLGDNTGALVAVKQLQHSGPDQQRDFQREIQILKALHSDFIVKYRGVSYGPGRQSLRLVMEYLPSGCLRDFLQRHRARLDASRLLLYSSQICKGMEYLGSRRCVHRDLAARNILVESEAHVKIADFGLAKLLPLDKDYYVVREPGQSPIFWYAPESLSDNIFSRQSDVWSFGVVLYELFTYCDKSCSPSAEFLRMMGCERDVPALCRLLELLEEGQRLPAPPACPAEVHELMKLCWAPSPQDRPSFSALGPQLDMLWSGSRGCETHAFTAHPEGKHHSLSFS
UniProt O60674, whole entry: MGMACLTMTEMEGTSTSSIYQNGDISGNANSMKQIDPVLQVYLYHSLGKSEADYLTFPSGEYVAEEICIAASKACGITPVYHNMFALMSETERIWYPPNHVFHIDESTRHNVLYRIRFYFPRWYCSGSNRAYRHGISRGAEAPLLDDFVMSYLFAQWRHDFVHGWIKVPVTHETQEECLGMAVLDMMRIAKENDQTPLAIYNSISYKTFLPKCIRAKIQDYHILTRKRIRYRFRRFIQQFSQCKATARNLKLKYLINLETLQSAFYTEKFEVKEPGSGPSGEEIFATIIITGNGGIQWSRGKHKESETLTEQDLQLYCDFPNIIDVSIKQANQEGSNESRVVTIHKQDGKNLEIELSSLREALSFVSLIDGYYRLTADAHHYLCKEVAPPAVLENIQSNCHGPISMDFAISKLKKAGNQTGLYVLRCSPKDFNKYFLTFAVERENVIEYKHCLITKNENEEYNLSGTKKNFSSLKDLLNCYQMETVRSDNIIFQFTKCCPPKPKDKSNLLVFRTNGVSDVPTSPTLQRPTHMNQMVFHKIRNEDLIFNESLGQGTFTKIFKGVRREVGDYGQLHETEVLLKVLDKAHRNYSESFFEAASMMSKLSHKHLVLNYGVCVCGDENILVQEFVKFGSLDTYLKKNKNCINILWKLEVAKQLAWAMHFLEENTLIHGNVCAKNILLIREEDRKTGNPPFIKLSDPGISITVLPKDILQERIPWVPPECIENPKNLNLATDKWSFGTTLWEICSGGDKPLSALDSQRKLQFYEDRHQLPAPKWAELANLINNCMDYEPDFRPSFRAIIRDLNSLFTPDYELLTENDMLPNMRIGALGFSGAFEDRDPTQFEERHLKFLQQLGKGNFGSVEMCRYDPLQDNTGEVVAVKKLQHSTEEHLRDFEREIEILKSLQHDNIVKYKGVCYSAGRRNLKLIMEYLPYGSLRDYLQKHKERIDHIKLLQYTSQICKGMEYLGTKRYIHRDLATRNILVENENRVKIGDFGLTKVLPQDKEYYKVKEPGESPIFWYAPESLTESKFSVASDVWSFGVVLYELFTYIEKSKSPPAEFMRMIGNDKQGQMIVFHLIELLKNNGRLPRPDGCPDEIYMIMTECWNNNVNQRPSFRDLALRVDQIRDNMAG
UniProt Q13464, whole entry: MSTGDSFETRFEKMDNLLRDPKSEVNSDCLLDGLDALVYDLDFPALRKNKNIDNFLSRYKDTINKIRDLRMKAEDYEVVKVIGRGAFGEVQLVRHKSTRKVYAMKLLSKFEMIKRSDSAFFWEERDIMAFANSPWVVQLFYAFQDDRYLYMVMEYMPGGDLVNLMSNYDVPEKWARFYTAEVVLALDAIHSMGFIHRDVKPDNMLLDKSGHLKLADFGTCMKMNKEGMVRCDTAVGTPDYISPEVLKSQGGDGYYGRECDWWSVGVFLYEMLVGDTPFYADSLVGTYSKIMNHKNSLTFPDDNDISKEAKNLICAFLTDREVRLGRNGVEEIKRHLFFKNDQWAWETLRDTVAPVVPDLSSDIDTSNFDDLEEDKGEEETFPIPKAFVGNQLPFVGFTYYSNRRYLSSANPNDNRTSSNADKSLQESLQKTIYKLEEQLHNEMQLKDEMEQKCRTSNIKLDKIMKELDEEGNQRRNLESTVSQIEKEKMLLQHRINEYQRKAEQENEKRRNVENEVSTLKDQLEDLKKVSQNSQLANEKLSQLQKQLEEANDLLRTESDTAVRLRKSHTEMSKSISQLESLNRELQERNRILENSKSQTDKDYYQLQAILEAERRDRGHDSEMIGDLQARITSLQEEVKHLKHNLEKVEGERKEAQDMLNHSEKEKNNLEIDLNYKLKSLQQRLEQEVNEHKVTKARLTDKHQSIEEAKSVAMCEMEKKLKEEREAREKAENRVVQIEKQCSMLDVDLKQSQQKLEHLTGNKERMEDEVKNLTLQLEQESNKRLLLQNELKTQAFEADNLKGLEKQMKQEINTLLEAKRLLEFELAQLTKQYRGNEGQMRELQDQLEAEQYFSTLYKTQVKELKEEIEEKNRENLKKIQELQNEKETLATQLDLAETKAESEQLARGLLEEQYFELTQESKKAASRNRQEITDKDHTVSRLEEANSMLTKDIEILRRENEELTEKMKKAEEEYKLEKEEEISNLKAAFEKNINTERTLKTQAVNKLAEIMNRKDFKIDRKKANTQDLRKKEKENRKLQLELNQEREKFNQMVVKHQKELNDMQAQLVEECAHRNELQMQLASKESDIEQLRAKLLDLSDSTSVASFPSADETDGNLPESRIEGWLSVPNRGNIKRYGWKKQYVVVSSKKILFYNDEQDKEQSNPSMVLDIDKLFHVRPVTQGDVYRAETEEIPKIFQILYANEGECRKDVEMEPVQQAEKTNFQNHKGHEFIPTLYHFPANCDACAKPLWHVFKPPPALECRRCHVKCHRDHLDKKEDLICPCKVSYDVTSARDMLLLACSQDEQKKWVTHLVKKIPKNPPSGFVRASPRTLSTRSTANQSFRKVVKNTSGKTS

Tests used:
JAK3 = JAK3 (Homo sapiens, UniProt P52333); experiment: JAK3 inhibition assay (33P incorporation into poly(Glu)4Tyr); settings: read-out: JAK3 Ki; Table 6; enzyme inhibition data (Ki)
JAK2 = JAK2 (Homo sapiens, UniProt O60674); experiment: JAK2 inhibition assay (as Example 3 with JAK-2 enzyme); settings: read-out: JAK2 Ki; Table 6; enzyme inhibition data (Ki)
ROCK I = ROCK I (Homo sapiens, UniProt Q13464); experiment: ROCK-I inhibition assay (radioactive enzyme assay, MBP substrate); settings: read-out: ROCK I Ki; Table 6; enzyme inhibition data (Ki)
Protocol: Compounds were screened for their ability to inhibit ROCK using a standard radioactive enzyme assay. Assays were carried out in a solution containing 100 mM HEPES (pH 7.5), 10 mM MgCl2, 25 mM NaCl, 2 mM DTT, and 1.5% DMSO. Final substrate concentrations in the assay were 13 μM [γ-^33P] ATP (25 mCi ^33P ATP/mmol ATP, Perkin Elmer, Cambridge, Mass./Sigma Chemicals, St Louis, Mo.) and 27 μM Myelin Basic Protein (MBP). Final enzyme concentration in the assay was 5 nM ROCK. Assays were carried out at room temperature. 1.5 μl of DMSO stock containing serial dilutions of the compound of the present invention (concentrations ranging from 10 μM to 2.6 nM) was placed in a 96 well plate. 50 μl of Solution 1 (100 mM HEPES (pH 7.5), 10 mM MgCl2, […]) was added to the plate. The reaction was initiated by addition of 50 μl of Solution 2 (100 mM HEPES (pH 7.5), 10 mM MgCl2, 4 mM DTT, […] and 10 nM ROCK). After 2 hours the reaction was quenched with 50 μL of 30% trichloroacetic acid (TCA, Fisher) containing 9 mM ATP. Transfer of 140 μL of the quenched reaction to a glass fiber filter plate (Corning, Cat. No. 3511) was followed by washing 3 times with 5% TCA. 50 μl of Optima Gold scintillation fluid (Perkin Elmer) was added and the plates were counted on a Top Count (Perkin Elmer). […]

Measured: Ki

Clc1cnc2[nH]ccc2c1N[C@H]1CCN(Cc2ccccc2)C1
< 500 nM: all assays above
